ChEMBL document CHEMBL3244331, “2,6-Methano-3-benzazocine-11-ropanols. Lack of antagonism between optical antipodes and observation of potent narcotic antagonism by two n-methyl derivatives” (1978)

Tested on: Rattus norvegicus
Assay: Narcotic antagonist activity in rat assessed as antagonism of phenazocine response at 80 mg/kg, sc by tail flick assay

For `CC(C)(C)C(C)(O)CC[C@]1(C)[C@H]2Cc3ccc(O)cc3[C@@]1(C)CCN2CC1CC1` (stereo partly specified), the inhibition was “inactive”.

Calls of active or inactive are those of the source. The calls are words filed in the database; no cut-off is given here.
